Source: paper PMC4481117

Tests used:
[1] = biological target: dynorphin B; test: cell adhesion assay; peptides coated on microtiter wells (3 h, 37 °C), post-coated with 1 % PVP; calcein-labeled HEK293 transfectants, 5x10^4 cells per well, 30 min at 37 °C; concentrations are coating concentrations
[2] = biological target: dynorphin A; test: as above

- EC50 [1]: 7.5 µM
- EC50 [2]: 0.2 to 0.5 µM
Substance: integrin Mac-1 (αMβ2, CD11b/CD18) on HEK293 cells (from UniProt P11215 17-1152; P05107 23-769) (receptor)
